Measured values published in ChEMBL document CHEMBL1144732 (Bioorg Med Chem Lett, 2008).

Protein sequences, listed by entry. Tags and fused reporters are not part of them. Lines headed by an entry give the natural chain unless they say otherwise; changes in a name come on top.
UniProt O43570: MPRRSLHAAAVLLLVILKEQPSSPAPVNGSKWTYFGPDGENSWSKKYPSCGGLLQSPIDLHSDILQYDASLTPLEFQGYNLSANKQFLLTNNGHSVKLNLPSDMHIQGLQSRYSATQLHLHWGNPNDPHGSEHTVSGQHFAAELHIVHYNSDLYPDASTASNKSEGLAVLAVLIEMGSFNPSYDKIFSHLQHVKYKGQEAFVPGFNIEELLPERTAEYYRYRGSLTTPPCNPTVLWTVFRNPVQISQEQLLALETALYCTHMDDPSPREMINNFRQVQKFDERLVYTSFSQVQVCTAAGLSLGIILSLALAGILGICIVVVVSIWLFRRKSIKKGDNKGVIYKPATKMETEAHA
UniProt P43166: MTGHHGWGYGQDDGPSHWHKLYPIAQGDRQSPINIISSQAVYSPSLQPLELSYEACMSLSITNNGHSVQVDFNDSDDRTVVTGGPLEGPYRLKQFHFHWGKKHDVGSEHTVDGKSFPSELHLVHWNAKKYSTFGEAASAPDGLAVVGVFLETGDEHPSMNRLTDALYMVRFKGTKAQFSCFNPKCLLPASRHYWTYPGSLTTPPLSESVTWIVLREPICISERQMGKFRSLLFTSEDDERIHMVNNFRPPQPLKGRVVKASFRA

How the values were obtained:
Carbonic anhydrase 12 = Carbonic anhydrase 12 (Homo sapiens, UniProt O43570)
Carbonic anhydrase 7 = Carbonic anhydrase 7 (Homo sapiens, UniProt P43166)

Ki (Carbonic anhydrase 12): 56 nM
Ki (Carbonic anhydrase 7): 6 nM
Compound: NS(=O)(=O)c1cc(Cl)c(Cl)c(S(N)(=O)=O)c1 [DICHLORPHENAMIDE]
